The target in the experiment is GABAA(α3β2γ2) (Homo sapiens, UniProt P18507+P34903). Nature of the experiment: Modulatory effect (automated patch-clamp, QPatch) on GABA-evoked currents in cells stably transfected with GABAA(α3β2γ2). Particulars: transfected Ltk cells, 2.0 μM GABA for 4 s, holding potential −80 mV; for EC50: 30 s prewash with test item, room temperature; for Max % (Emax): upper asymptote of dose-response fit. On the procedure: Modulatory effects of the compounds of this disclosure were investigated using cells stably transfected with GABA-activated channels of the GABAA(α3β2γ2) subtype together with submaximal GABA concentrations. Expression of GABA receptor were induced by adding Dexamethasone to the cells for 24 to 48 h before experimentation. In general, cells were passaged at a confluence of about 80 to 90%. For electrophysiological measurements cells were harvested at a confluence of about 80 to 90% from sterile culture flasks containing culture complete medium. Cells were transferred as suspension in PBS to the QPatch 16× or QPatch HTX system to the centrifuge/washer directly. Cells were incubated at 37 °C in a humidified atmosphere with 5% CO2 (rel. humidity about 95%). The cells were continuously maintained in and passaged in sterile culture flasks containing a 1:1 mixture of Dulbecco's modified eagle medium and nutrient mixture D-MEM/F-12 (1×, liquid, with L-Glutamine), supplemented with 10% foetal bovine serum and 1.0% Penicillin/Streptomycin solution and neomycin. The 1× bath solution was made at least every 5 days out of a sterile 10× bath solution, which had been prepared prior to the experimental start of the present study and stored at 1 °C to 9 °C. The final bath solution included Sodium Chloride 137 mM, Potassium Chloride 4 mM, Calcium Chloride 1.8 mM, Magnesium Chloride 1 mM, HEPES 10 mM, D-Glucose 10 mM, pH (NaOH) 7.4. The 1× intracellular solution was thawed every day and includes Potassium Chloride 130 mM, Magnesium Chloride 1 mM, Mg-ATP 5 mM, HEPES 10 mM, EGTA 5 Mm, pH (KOH) 7.2. Automated patch-clamping: Cells were transferred as suspension in serum-free medium to the QPatch HTX system and kept in the cell storage tank during experiments. All solutions applied to cells including the intracellular solution were maintained at room temperature (19 °C to 30 °C). After formation of a Gigaohm seal between the patch electrodes and transfected individual Ltk cells were ruptured to assure electrical access to the cell interior (whole-cell patch-configuration). Inward currents were measured upon application of 2.0 μM GABA to patch-clamped cells for 4 s. During the entire experiment the cells were voltage-clamped at a holding potential of −80 mV. For the analysis of test items, GABAA receptors were stimulated by 2.0 μM GABA and test item combinations described below. Thirty-second prewash steps with test items was performed in between two agonist applications. The dose-response curve was fit with a sigmoidal three parameter equation current=Emax/1+10^((LogEC50−X)*H) where X is the compound concentration, Emax the upper asymptote, EC50 the concentration of test item at half maximal effect, and H is the Hill coefficient. SigmaPlot 11.0 was used for construction of curve.
In general terms: In patch-clamp work, channel activity is measured electrically.

Sequences of proteins named here, by UniProt entry; tags and fusion partners are left off. Residues count along the entry.
UniProt P18507, 40-475 limits assumed: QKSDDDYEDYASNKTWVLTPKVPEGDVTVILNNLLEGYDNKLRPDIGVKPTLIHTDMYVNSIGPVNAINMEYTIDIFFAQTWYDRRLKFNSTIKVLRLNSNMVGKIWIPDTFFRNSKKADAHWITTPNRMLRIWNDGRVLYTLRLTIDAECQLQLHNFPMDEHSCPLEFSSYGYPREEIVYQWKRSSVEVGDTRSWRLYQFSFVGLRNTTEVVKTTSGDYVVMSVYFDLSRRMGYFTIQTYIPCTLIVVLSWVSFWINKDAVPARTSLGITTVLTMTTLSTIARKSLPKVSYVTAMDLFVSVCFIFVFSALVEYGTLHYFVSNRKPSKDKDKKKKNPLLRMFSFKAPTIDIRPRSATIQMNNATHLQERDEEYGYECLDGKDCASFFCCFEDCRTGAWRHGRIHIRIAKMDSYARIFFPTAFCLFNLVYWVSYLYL
UniProt P34903, 29-492 limits assumed: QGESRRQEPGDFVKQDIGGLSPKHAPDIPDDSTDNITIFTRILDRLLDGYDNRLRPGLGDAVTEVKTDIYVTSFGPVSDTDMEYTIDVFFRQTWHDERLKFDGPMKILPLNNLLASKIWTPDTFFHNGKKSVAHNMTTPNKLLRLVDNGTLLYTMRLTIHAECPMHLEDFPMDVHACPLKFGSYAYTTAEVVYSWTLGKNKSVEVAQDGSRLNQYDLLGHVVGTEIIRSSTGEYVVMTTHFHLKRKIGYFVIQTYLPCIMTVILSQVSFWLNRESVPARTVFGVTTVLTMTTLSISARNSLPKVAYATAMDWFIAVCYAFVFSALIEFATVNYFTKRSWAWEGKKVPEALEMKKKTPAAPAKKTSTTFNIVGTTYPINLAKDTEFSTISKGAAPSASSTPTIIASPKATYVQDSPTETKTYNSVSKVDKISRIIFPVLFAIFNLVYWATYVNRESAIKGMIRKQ
UniProt P47870, 25-512 partner limits assumed: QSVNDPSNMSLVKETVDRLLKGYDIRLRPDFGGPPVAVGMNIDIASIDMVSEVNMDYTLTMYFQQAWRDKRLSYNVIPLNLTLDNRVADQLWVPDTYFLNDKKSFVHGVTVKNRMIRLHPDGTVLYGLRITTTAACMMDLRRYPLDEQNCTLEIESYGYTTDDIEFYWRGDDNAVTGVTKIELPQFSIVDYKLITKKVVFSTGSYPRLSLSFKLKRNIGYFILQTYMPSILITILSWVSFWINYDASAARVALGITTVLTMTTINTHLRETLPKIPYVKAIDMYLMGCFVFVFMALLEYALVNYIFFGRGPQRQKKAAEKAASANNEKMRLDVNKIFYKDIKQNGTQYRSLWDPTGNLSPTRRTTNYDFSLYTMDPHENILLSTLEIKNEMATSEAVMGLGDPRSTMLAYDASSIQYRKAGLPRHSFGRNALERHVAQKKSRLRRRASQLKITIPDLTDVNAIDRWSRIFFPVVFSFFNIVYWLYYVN

As for `O=C(O)c1nnn2c1CN=C(c1ccccc1F)c1cc(Cl)ccc1-2`, the EC50 (as a rule, the concentration needed to bring the measured effect to its halfway point) is less than 50 nM and the “Max % (Emax)” value is given as “++ (Emax is 50-100%)”.

Regarding `O=C(O)c1cnn2c1CN=C(c1ccccc1F)c1cc(Cl)ccc1-2`, the EC50 lay in the range of 50 to 100 nM and the “Max % (Emax)” value is listed as “+++ (Emax >100%)”.

Turning to `O=C(O)c1ncn2c1CN=C(c1ccccc1F)c1cc(Cl)ccc1-2`, the EC50 was less than 50 nM and the “Max % (Emax)” value is listed as “++ (Emax is 50-100%)”.

(Values after patent US20260384430A1, “PERIPHERALLY RESTRICTED GABA POSITIVE ALLOSTERIC MODULATORS FOR THE TREATMENT OF IRRITABLE BOWEL SYNDROME AND OTHER AILMENTS OF THE PERIPHERAL NERVOUS SYSTEM” (published 2026).)
